Earlier results on one compound are cited in patent publication US20140336503A1, “RA[…] […] RELATED METHODS THEREOF” (The Regents of the University of Michigan, priority 2013, published 2014).

Protein sequences, listed by entry. Tags and fused reporters are not part of them. Residues count along the entry.
UniProt P43235, 115-329 limits assumed: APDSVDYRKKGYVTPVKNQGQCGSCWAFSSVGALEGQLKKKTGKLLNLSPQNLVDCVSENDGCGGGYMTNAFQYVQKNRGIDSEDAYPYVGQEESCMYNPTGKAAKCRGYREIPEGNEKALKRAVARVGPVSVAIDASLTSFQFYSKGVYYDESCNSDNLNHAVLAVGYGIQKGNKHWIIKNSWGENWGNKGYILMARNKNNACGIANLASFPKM

The target in the series is human cathepsin K (Homo sapiens, UniProt P43235). Conditions: in vitro, tested as the radiolabelled form; cited from earlier work.

One may read the IC50 as the concentration that gives 50% inhibition. Take `COc1ccc(CCNC(=O)c2cnc(C#N)nc2NCC(C)(C)C)cc1` [[^11C]2, 2-cyano-N-(4-[^11C]methoxyphenethyl)-4-(neopentylamino)pyrimidine-5-carboxamide]: the IC50 is 3 pM.
